Molecular target: T1, human α7 nAChR (Homo sapiens, UniProt P36544)
T1 construct: expressed in transfected cells; host or cells: SH-SY5Y
Assay: Radioligand displacement at human α7 nAChR, [3H]methyllycaconitine, SH-SY5Y cells
Type: binding
Details: stably transfected SH-SY5Y cells, read-out: Affinity (Ki in nM) hα7

Sequences of proteins named here, by UniProt entry; tags and fusion partners are left off. Residues count along the entry.
UniProt P36544, 23-502: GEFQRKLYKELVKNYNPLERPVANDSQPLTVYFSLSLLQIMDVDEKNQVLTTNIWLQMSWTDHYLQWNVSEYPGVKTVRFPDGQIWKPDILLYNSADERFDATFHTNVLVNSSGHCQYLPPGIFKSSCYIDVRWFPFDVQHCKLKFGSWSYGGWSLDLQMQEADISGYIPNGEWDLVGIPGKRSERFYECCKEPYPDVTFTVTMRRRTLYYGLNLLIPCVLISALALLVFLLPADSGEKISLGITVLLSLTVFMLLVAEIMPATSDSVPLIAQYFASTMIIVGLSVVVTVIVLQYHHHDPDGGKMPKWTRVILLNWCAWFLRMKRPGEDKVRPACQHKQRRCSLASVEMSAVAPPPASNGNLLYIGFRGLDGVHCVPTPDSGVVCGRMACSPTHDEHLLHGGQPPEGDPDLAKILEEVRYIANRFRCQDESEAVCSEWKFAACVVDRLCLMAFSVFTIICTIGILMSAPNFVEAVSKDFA

O=S1(=O)c2cc(N3CCN4CCC3CC4)ccc2-c2cccc(F)c21 [Compound 10b, 3-(1,4-Diazabicyclo[3.2.2]nonan-4-yl)-6-fluorodibenzo[b,d]thiophene 5,5-dioxide]
Ki: 0.84 ± 0.16 nM
